This is an account of results in patent US8569336B2, “Compounds for the treatment of inflammatory disorders” (priority 2008, dated 2013).

As usually defined, the IC50 is the point on the concentration scale where inhibition reaches its midpoint.

This test concerns TNF-α production from human whole blood. Put plainly: Inhibition of TNF-α production from human whole blood (hWBA), LPS stimulated, ELISA. The conditions noted are these: read-out: hWBA (IC50), LPS-stimulated human whole blood, TNF-α by ELISA. It counts as cell-based. In general terms: An ELISA detects its analyte on a solid surface through an enzyme-linked reagent.

`COc1ccc2c(c1)C(=O)N(C[C@@]1(c3cc4nc(N(c5cn[nH]c5)C5CCN(C)CC5)ccc4o3)NC(=O)NC1=O)C2` [Compound 1703]: the IC50 was determined as 187 nM.
